# Source: paper PMC6407579, “New flavonoid – N,N-dibenzyl(N-methyl)amine hybrids: Multi-target-directed agents for Alzheimer´s disease endowed with neurogenic properties” (Journal of Enzyme Inhibition and Medicinal Chemistry, 2019)
# The chains behind the UniProt entries cited, without tags or fusion partners.
# UniProt P21397, whole entry: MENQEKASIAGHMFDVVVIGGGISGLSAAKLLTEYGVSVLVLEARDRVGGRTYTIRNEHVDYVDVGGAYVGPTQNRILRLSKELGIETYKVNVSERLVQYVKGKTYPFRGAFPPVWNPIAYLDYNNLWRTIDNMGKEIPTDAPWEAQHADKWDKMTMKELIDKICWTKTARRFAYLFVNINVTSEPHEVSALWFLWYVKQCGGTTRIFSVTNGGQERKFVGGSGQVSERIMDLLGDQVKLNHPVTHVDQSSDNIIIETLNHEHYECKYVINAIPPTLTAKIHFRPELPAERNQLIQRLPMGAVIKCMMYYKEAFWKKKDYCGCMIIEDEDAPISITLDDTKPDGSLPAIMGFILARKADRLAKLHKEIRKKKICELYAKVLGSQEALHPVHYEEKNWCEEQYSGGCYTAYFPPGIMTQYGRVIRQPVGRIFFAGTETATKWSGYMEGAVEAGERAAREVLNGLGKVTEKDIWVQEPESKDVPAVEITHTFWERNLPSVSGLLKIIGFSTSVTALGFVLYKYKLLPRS
# Biological target: recombinant hMAO-A (Homo sapiens, UniProt P21397)
# Assay type: biochemical
# Details: mean ± SEM (n = 3); 100 µM highest concentration tested
smiles,measurement,value
"CC(C)NNC(=O)c1ccncc1 [Iproniazid, reference compound]",IC50,6.7 ± 0.8 µM
